Source: article PMC6166128, “Histone H2A‐H2B binding by Pol α in the eukaryotic replisome contributes to the maintenance of repressive chromatin” (The EMBO Journal, 2018)

Target: recombinant human H2A-H2B dimer (human, UniProt P0C0S8 1-130; Q96A08 1-127)
Experiment: ITC; 80 μM POLA1-NTD fragment injected into 10 μM H2A-H2B dimer in the cell; 25°C; 20 mM Tris-HCl pH 8.0, 150 mM NaCl, 5% glycerol, 0.005% Tween 20; single-site binding model
Conditions: both partners purified

B1: human POLA1 N-terminal domain (HsPOLA1-NTD, residues M1 to G110) with C-terminal Twin-Strep tag (domain or fragment, UniProt P09884 1-110, looked up)
chain: MAPVHGDDSLSDSGSFVSSRARREKKSKKGRQEALERLKKAKAGEKYKYEVEDFTGVYEEVDEEQYSKLVQARQDDDWIVDDDGIGYVEDGREIFDDDLEDDALDADEKG
notes: POLA1, polymerase subunit of Pol alpha, human; residues M1 to G110; also called HsPOLA1NTD-Twin-Strep; Pol1-NTD; source: E. coli Rosetta2 (DE3), purified (Ni-NTA, SEC, PreScission cleavage); not shown: 8His-MBP, N-terminal, cleaved; Twin-Strep, C-terminal, kept
B1 was tested. Which Kd did it give?
Its Kd is 19 nM.

And the “stoichiometry N” value?
Its value is 1.
